Reference: PubChem BioAssay (NCI)
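In this assay, cells in 96-well plates receive the compound at five concentrations for 48 hours. Endpoints are linearly interpolated between the surrounding concentrations. The concentration for full growth arrest is given as TGI.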

Key:
Experiment in all cases: growth of human tumour cells (NCI), 48 h
[1] = test system: DMS 114 small cell lung
[2] = test system: SW-620 colon
[3] = test system: OVCAR-3 ovarian
[4] = test system: A498 renal
[5] = test system: K-562 leukemia
[6] = test system: SF-268 CNS
[7] = test system: SK-MEL-5 melanoma
[8] = test system: TK-10 renal
[9] = test system: SF-295 CNS
[10] = test system: KM12 colon
[11] = test system: SNB-78 CNS
[12] = test system: 786-0 renal
[13] = test system: SF-539 CNS
[14] = test system: SK-MEL-28 melanoma
[15] = test system: HOP-92 NSCLC
[16] = test system: OVCAR-5 ovarian
[17] = test system: NCI-H522 lung
[18] = test system: COLO 205 colon
[19] = test system: UACC-257 melanoma
[20] = test system: HCC-2998 colon
[21] = test system: DLD-1 colon
[22] = test system: NCI-H460 lung
[23] = test system: HT29 colon
[24] = test system: HCT-15 colon
[25] = test system: SR leukemia
[26] = test system: RXF-631 renal
[27] = test system: HOP-62 NSCLC
[28] = test system: SNB-19 CNS
[29] = test system: LXFL 529 NSCLC
[30] = test system: HOP-18 NSCLC
[31] = test system: RXF 393 renal
[32] = test system: MOLT-4 leukemia
[33] = test system: KM20L2 colon
[34] = test system: SN12C renal
[35] = test system: RPMI-8226 leukemia
[36] = test system: MALME-3M melanoma
[37] = test system: M14 melanoma
[38] = test system: ACHN renal
[39] = test system: OVCAR-4 ovarian
[40] = test system: M19-MEL melanoma
[41] = test system: SK-MEL-2 melanoma
[42] = test system: CCRF-CEM leukemia
[43] = test system: NCI-H322M lung
[44] = test system: OVCAR-8 ovarian
[45] = test system: A549 NSCLC
[46] = test system: NCI-H23 lung
[47] = test system: IGROV1 ovarian
[48] = test system: UO-31 renal
[49] = test system: EKVX NSCLC
[50] = test system: HCT-116 colon
[51] = test system: U251 CNS
[52] = test system: HL-60(TB) leukemia
[53] = test system: UACC-62 melanoma
[54] = test system: DMS 273 small cell lung

Measured: TGI

Nc1nc2c(ncn2CCN(CCCl)CCCl)c(=O)[nH]1
> 100 µM: all assays above
